The values below come from PubChem BioAssay AID602139 (NMMLSC, 2011).

Each structure is given as a SMILES string. Only a part is listed here, and it is no random draw. Some of these compounds have results that are not shown, active ones among them. Active and inactive are the calls of the source. Cut-off read from the data, not from the text of the source: active = inhibition above about 32%; inactive = the rest.

This assay has as its system Botulinum neurotoxin type A light chain protease (Clostridium botulinum A str. ATCC 3502). The assay is described as follows: inhibition of botulinum toxin A LC protease – biochemical, flow cytometry, cherry pick 1, confirmation (AID 602139). As to conditions: multiplex microsphere protease assay, at 10 µM, hits give high values.

Turning to `CN1[C@@H]2CC[C@H]1CC(OC(=O)C(O)(c1ccccc1)c1ccccc1)C2` (stereo partly specified), the inhibition (in general, the drop in the measured response relative to a control, in per cent) was inactive: 0.2%.
